Bioassay records deposited in PubChem by several laboratories.
A selection: hits, their analogues and other compounds. The true share with any hit is near 4.2%.
NALP1 inh = NALP1 inflammasome inhibitors in reconstituted yeast, colorimetric, S. cerevisiae, triplicate retest; S. cerevisiae NALP1/ASC/caspase-1 growth, X-gal OD620, 72 h; inhibition, % at 10 µM; 280,000 tested, 0.61% active; in the data active = inhibition mostly above about 24%, no sharp cut-off; inactive = mostly below about 32%
MC4R ag barr = MC4R agonists recruiting beta-arrestin, primary screen, cell-based, luminescence, agonist arm of biased-ligand search | U2OS MC4R beta-arrestin complementation; percent of melanotan II response, DMSO zero | Melanocortin receptor 4 (Homo sapiens), P32245 | AID 540308, 2011 | 360,000 tested, 0.98% active | activation, % at 8.9 µM;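 active = activation above a per-plate cutoff, the mean activation of sample wells on that plate plus 3 SD, cut at about 8% in these data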
MC4R antag cAMP = MC4R antagonists of cAMP signaling, primary screen, cell-based, TR-FRET, antagonist arm of biased-ligand search. inhibition, % at 6.5 µM. MC4R-expressing cells, MTII-stimulated cAMP, LANCE TR-FRET. AID 540295, 2011. 360,000 tested, 0.48% active;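 active = inhibition above its plate's cutoff, the mean of tested wells on that plate plus 3 SD, cut at about 29% in these data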;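 also: 0% = Melanotan II alone and 100% = Melanotan II plus saturating MCL0020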
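System – human MC4R-expressing U2OS cells · Also added – Melanotan II · Dosing – one concentration, 6.5 µM nominal · Timing – 30-min compound, 1-h challenge, 1-h detection, room temperature · Measured by – Eu-cAMP/anti-cAMP TR-FRET, emission 671 nm · Replicates – singlicate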
ALR H2O2 inh = human ALR oxidase inhibition via reduced H2O2; P55789; purified ALR, DTT oxidation, H2O2 HRP-luminol luminescence; inhibition, % (concentration not given with the values); 3.8% of 290,000 active; AID 485317;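 active = mean and each replicate at 75% or more; inconclusive = only one of the two met; inactive = neither met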;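 note: stock transfer was 7.5 nL into about 7.5 µL; 0% = neutral wells and 100% = wells with inactivated enzyme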
HDAC3 inhib = HDAC3 deacetylase inhibitors, primary screen, biochemical, fluorescence, cell-free homogeneous | Histone deacetylase 3 (Homo sapiens), O15379 | recombinant HDAC3, fluorogenic peptide/trypsin coupled | inhibition, % at 8.3 µM | 320,000 tested, 0.15% active | AID 2718, 2010; in the data active = inhibition above about 26%, passing the limit was not always enough; inconclusive = no clear call, values can overlap the other calls
Yeast UUG start = modulators of start codon recognition fidelity in yeast. S. cerevisiae UUG-firefly luciferase reporter, luminescence/redox ratio. activity score, % at 18.7 µM. 0.13% of 350,000 active. AID 602363;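 active = replicate mean at a twofold rise or more, about +100% in these data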;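 also: firefly luciferase made from a UUG start codon reports start codon fidelity; reporter light over untreated wells divided by growth signal over untreated wells; some hits fall short of that in this replicate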
An asterisk follows results filed as active; ? = inconclusive; / = no result.

Amino acid sequences for entries named in this document (tags omitted).
Melanocortin receptor 4 (Homo sapiens), P32245, UniProt P32245, whole entry, looked up: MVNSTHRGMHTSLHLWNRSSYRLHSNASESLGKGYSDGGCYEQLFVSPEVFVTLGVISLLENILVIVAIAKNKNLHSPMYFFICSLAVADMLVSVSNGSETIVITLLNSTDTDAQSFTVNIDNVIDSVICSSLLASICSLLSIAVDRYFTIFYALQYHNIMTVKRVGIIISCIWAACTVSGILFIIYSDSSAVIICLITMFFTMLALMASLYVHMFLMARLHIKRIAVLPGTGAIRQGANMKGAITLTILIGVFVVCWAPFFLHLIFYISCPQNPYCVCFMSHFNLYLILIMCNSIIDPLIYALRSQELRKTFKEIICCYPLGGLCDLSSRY

SMILES	NALP1 inh	MC4R ag barr	MC4R antag cAMP	ALR H2O2 inh	HDAC3 inhib	Yeast UUG start
C=CC[C@@H](CC(=O)N(CCO)Cc1ccccc1)C(=O)N[C@@H](COC(=O)[C@H](CC=C)CC(=O)OC(C)(C)C)Cc1c[nH]c2ccccc12	/	-2	2	-1	33*	-6
C=CC[C@@H](CC(=O)N[C@H](CO)Cc1ccccc1)C(=O)N[C@H](COC(=O)[C@H](CC=C)CC(=O)OC(C)(C)C)Cc1c[nH]c2ccccc12	/	-1	17	/	/	-10
C=CC[C@H](CC(=O)N(CCO)Cc1ccccc1)C(=O)N[C@H](COC(=O)[C@H](CC=C)CC(=O)OC(C)(C)C)Cc1c[nH]c2ccccc12	/	-1	8	/	/	7
O=C(O)CN(c1ccccn1)S(=O)(=O)c1ccc(Cl)cc1	13	3	-3	-3	-8	-5
O=C(O)CN(c1ccccn1)S(=O)(=O)c1ccccc1	43*	-2	6	0	-17	-15
C[C@@H]1CN([C@H](C)CO)C(=O)c2cc(NC(=O)Nc3ccc(F)cc3)ccc2O[C@H]1CN(C)Cc1ccc(C(F)(F)F)cc1	/	/	/	/	/	15
C[C@H](CO)N1C[C@H](C)[C@H](CN(C)Cc2ccncc2)Oc2ncc(C#Cc3ccncc3)cc2C1=O	/	/	/	/	/	-6
Cc1ccc(S(=O)(=O)NN2C(=O)/C(=C/c3cccnc3)SC2=S)cc1	-2	-1	21	96*	8	-17
COc1ccccc1/C=C1\SC(=S)N(NS(=O)(=O)c2ccc(C)cc2)C1=O	-3	-1	4	97*	3	-10
COc1ccc(NC(=O)N[C@@H]2CC[C@@H](CCNS(=O)(=O)c3ccccc3F)O[C@@H]2CO)cc1	/	/	/	/	/	4
Cc1ccc(NCCc2ccc(C)nc2)cc1	6	-3	7	49	1	-6
Cc1ccc(CCNc2ccc3ccccc3c2)cn1	/	-2	6	99*	0	/
Cc1onc(-c2ccccc2Cl)c1C(N)=O	0	-1	3	-31	2	-9
Cc1ccc(NC(=S)NC(=O)c2c(-c3ccccc3Cl)noc2C)cc1	6	6	12	/	5	-18
CC(=O)N1CCN(C(=S)NC(=O)c2c(-c3ccccc3Cl)noc2C)CC1	0	-2	-1	95*	2	/
Cc1[nH]n(C)c(=O)c1C(=O)c1c(-c2ccccc2Cl)noc1C	-5	1	5	85*	-5	-19
CCC(=O)N1CC[C@H]2[C@H](CO)Nc3ccc(C#Cc4cccnc4)cc3[C@H]21	/	/	/	/	/	6
Cc1ccc(NC(=O)N(CCCN2CCOCC2)Cc2cccnc2)cc1C	24	0	4	9	-10	-18
CCN1CCCc2cc(CN(CCN3CCOCC3)C(=O)Nc3ccc(C)c(C)c3)ccc21	4	0	10	99*	1	-1
CCc1ccc(NC(=O)N(CCCN2CCOCC2)Cc2cccs2)cc1	17	-1	2	-6	3	-27
CCc1ccc(NC(=O)N(CCN2CCOCC2)Cc2ccc3c(c2)CCCN3CC)cc1	-7	2	5	99*	11	-11
O=C(C1CC1)N1C[C@H]2[C@@H](c3ccccc31)[C@H](CO)N2Cc1ccccc1Cl	/	/	/	/	/	-7
Cc1cccc(Nc2c(-c3ccc(N4CCOCC4)cc3)nc3ncccn23)c1	29	0	21	95*	2	-24
Oc1ccc(-c2nc3ncccn3c2Nc2ccc3c(c2)OCCO3)cc1	-1	0	1	93*	6	-23
Cc1ccc(-c2nc3ncccn3c2Nc2ccc3c(c2)OCCO3)cc1	-1	-1	0	96*	-1	-34

Reprinted at random: two records from the list, in no set order.
SMILES	NALP1 inh	MC4R ag barr	MC4R antag cAMP	ALR H2O2 inh	HDAC3 inhib	Yeast UUG start
Cc1cccc(Nc2c(-c3ccc(N4CCOCC4)cc3)nc3ncccn23)c1	29	0	21	95*	2	-24
C[C@@H]1CN([C@H](C)CO)C(=O)c2cc(NC(=O)Nc3ccc(F)cc3)ccc2O[C@H]1CN(C)Cc1ccc(C(F)(F)F)cc1	/	/	/	/	/	15

Going on with the list.
SMILES	NALP1 inh	MC4R ag barr	MC4R antag cAMP	ALR H2O2 inh	HDAC3 inhib	Yeast UUG start
c1cn2c(Nc3ccc4c(c3)OCCO4)c(-c3ccc(N4CCOCC4)cc3)nc2cn1	/	1	5	?	3	/
Cc1csc(NC(=O)CSc2ncnc3c2cnn3-c2ccccc2Cl)n1	34	-2	11	99*	4	-13
Cc1csc(SCC(=O)Nc2ccc(Cl)cn2)n1	27	-3	7	92*	8	-23
CC(C)C(=O)NNC(=O)CSc1ncnc2c1cnn2-c1ccccc1Cl	19	-1	-4	10	0	/
Cc1cnc(=O)[nH]c1SCC(=O)c1ccc(F)cc1	24	-2	-3	99*	-6	-16
Cc1csc(NC(=O)CSc2ncc(-c3ccccc3)[nH]2)n1	6	5	5	59	2	-18
CC(C)(C)c1csc(SCC(=O)Nc2ccc(Cl)cn2)n1	-5	2	-4	-5	12	8
Cc1csc(NC(=O)CSc2[nH]c(=O)ncc2C)n1	/	-3	6	99*	1	-9
CC(C)C#Cc1cnc2c(c1)C(=O)N([C@@H](C)CO)C[C@@H](C)[C@H](CN(C)C(=O)Cc1ccccn1)O2	/	/	/	/	/	5
O=C(Nc1ccccc1F)N[C@@H]1CC[C@H](CCNC(=O)C2CCCC2)O[C@H]1CO	/	/	/	/	/	1
CCOC(=O)c1c(SCC(=O)Nc2nc(C)cs2)nc(=O)[nH]c1C	11	-2	10	99*	-7	-14
COC(=O)c1c(SCC(=O)Nc2ccc(C)cc2)nc(=O)[nH]c1C	17	-3	6	53	5	/
O=C(Nc1ccccc1O)c1ccc(C(=O)c2ccccc2)o1	-19	-1	1	/	48*	-18
COc1ccccc1NC(=O)c1ccc(C(=O)c2ccccc2)o1	6	0	5	/	6	-8
COc1ccc(NC(=O)N2CCCc3ccccc32)cc1	-1	-4	8	-12	-2	-14
COc1ccc(N/N=C(/C(C)=O)N2CCCc3ccccc32)cc1	9	1	10	96*	-5	/
Cc1ccc(N/N=C(\C#N)C(=N)N2CCCCC2)cc1	-10	-2	-11	99*	11	/
CCN(CC)C(=N)/C(C#N)=N/Nc1ccccc1	-2	2	-5	87*	-4	-4
COc1ccccc1N/N=C(\C#N)C(=N)N1CCOCC1	-5	-1	-12	82*	4	/
N#C/C(=N\Nc1ccccc1)C(=N)N1CCCCC1	8	0	-3	99*	2	/
COCC(=O)Nc1ccc2c(c1)[C@H]1C[C@@H](CC(=O)OC)O[C@H](CO)[C@H]1O2	/	/	/	/	/	-11
C[C@@H](NC(=O)C[C@@H]1CC[C@H]2[C@@H](COC[C@H](O)CN2C(=O)Nc2cc(Cl)cc(Cl)c2)O1)c1ccccc1	/	/	/	/	/	-9
COCC(=O)N(C)C[C@@H]1Oc2ncc(-c3cccc(OC)c3)cc2C(=O)N([C@@H](C)CO)C[C@@H]1C	/	/	/	/	/	-1

In a second layout: three of the compounds above.
| Compound | NALP1 inh | MC4R ag barr | MC4R antag cAMP | ALR H2O2 inh | HDAC3 inhib | Yeast UUG start |
| --- | --- | --- | --- | --- | --- | --- |
| C[C@@H](NC(=O)C[C@@H]1CC[C@H]2[C@@H](COC[C@H](O)CN2C(=O)Nc2cc(Cl)cc(Cl)c2)O1)c1ccccc1 | / | / | / | / | / | -9 |
| Cc1csc(NC(=O)CSc2ncc(-c3ccccc3)[nH]2)n1 | 6 | 5 | 5 | 59 | 2 | -18 |
| CCN(CC)C(=N)/C(C#N)=N/Nc1ccccc1 | -2 | 2 | -5 | 87* | -4 | -4 |
